Results from BigSolDB 2.1.

CCCc1nn(C)c2c(=O)[nH]c(-c3cc(S(=O)(=O)N4CCN(C)CC4)ccc3OCC)nc12.O=C(O)CC(O)(CC(=O)O)C(=O)O
solubility (mole fraction)
Conditions	293.2 K	298.2 K	303.2 K	308.2 K	313.2 K
in NMP	0.05	0.062	0.07	0.078	0.0866
in isopropanol	5.59e-05	7e-05	8.78e-05	0.000104	0.000132
in propylene glycol	0.000391	0.000424	0.00045	0.000469	–
in water	0.000102	0.000125	0.000148	0.000174	0.000205
